# Measurements taken from ChEMBL document CHEMBL1131846, “Selective A1-adenosine receptor antagonists identified using yeast Saccharomyces cerevisiae functional assays” (Bioorg Med Chem Lett, 1999).
# Protein sequences, listed by entry. Tags and fused reporters are not part of them.
# UniProt P30542, whole entry: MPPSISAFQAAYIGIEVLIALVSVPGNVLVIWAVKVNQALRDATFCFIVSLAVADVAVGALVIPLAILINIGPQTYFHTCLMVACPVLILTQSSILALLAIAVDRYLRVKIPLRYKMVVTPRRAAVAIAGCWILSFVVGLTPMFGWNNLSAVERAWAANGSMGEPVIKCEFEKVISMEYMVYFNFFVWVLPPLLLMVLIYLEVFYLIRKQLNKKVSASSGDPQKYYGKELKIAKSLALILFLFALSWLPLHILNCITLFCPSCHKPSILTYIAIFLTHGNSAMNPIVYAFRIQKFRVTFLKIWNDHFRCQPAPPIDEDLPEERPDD
# What was measured:
# Adenosine receptor A1 [1] = target: T1, Adenosine receptor A1 (Homo sapiens, UniProt P30542); test: Inhibitory activity against binding of the [3H]DPCPX to human A1 receptor (hA1) radioligands using competition binding assay
# Adenosine receptor A1 [2] = target: T1, Adenosine receptor A1; test: Inhibitory activity against membranes from yeast cells transformed with human A1 receptor (hA1); type: cell-based
# Adenosine receptor A1 [3] = target: T1, Adenosine receptor A1; test: Inhibitory activity against binding of [3H]DPCPX to human A1 receptor (hA1) using competition binding assay
smiles,measurement,setting,value
CC(=O)NCCNc1nc(-c2ccccc2)nc2[nH]c(C)c(C)c12,Ki,Adenosine receptor A1 [1],0.012 µM
same,IC50,Adenosine receptor A1 [2],0.024 µM
same,IC50,Adenosine receptor A1 [3],0.024 µM
